# Test results as given in patent US12606541B2, “PPARg modulators and methods of use” (Eisai R&D Management Co., Ltd., priority 2020, dated 2026).
# Sequences of proteins named here, by UniProt entry; tags and fusion partners are left off. Residues count along the entry.
# UniProt P37231, 234-505 limits assumed: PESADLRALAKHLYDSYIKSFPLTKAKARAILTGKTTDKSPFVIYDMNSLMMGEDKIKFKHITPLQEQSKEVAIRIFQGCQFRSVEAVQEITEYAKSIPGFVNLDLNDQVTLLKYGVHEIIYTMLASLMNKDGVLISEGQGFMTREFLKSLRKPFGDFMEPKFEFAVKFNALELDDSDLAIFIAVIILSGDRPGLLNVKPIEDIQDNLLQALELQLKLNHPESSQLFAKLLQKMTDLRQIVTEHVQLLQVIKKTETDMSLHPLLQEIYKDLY
# What was measured:
# [1] = biological target: His6-TEV-PPARγ-(234-505) (Homo sapiens, UniProt P37231); assay: TR-FRET Assay to Measure Co-R Peptide Recruitment to PPARγ; conditions: read-out: TR-FRET i-Ag, Co-R peptide (SMRT-ID2) recruitment, top final concentration 20 μM
# [2] = tested on: UM-UC-9 engineered cells; assay: Cell proliferation / short-term viability assay, CellTiter-Glo 144 h; conditions: read-out: CTGlo 144 h UMUC9.5, G150
smiles,measurement,setting,value
"COc1cc(-c2cc(C(=O)N3CC[C@H](C(=O)NCc4ncc(N5CCNC6CC65)cn4)CC34CC4)n[nH]2)c(F)cn1 (single isomer, unassigned) [Example 469-B]",AC50,[1],115 nM
same,pIC50,[2],5.00
"COc1cc(-c2cc(C(=O)N3CC[C@H](C(=O)NC4CN(CC5(O)CC5)CC4(F)F)CC34CC4)n[nH]2)c(F)cn1 (single isomer, unassigned) [Example 470-A]",AC50,[1],87.4 nM
same,pIC50,[2],6.09
"COc1cc(-c2cc(C(=O)N3CC[C@H](C(=O)NC4CN(CC5(O)CC5)CC4(F)F)CC34CC4)n[nH]2)c(F)cn1 (single isomer, unassigned) [Example 470-B]",AC50,[1],21.1 nM
same,pIC50,[2],6.67
"COc1cc(-c2cc(C(=O)N3CC[C@H](C(=O)NC4CCN(c5ncc(C#N)cn5)C4)CC34CC4)n[nH]2)c(F)cn1 (single isomer, unassigned) [Example 472-A]",AC50,[1],11.5 nM
same,pIC50,[2],7.39
"COc1cc(-c2cc(C(=O)N3CC[C@H](C(=O)NC4CCN(c5ncc(C#N)cn5)C4)CC34CC4)n[nH]2)c(F)cn1 (single isomer, unassigned) [Example 472-B]",AC50,[1],21.9 nM
same,pIC50,[2],5.86
"CC(O)c1cc(-c2cc(C(=O)N3CCC(C(=O)NCc4ncc(F)cc4Cl)CC34CC4)n[nH]2)c(F)cn1 (single isomer, unassigned) [Example 478-A]",AC50,[1],40 nM
same,pIC50,[2],6.54
"CC(O)c1cc(-c2cc(C(=O)N3CCC(C(=O)NCc4ncc(F)cc4Cl)CC34CC4)n[nH]2)c(F)cn1 (single isomer, unassigned) [Example 478-B]",AC50,[1],56 nM
same,pIC50,[2],6.17
"CC(O)c1cc(-c2cc(C(=O)N3CCC(C(=O)NCc4ncc(F)cc4Cl)CC34CC4)n[nH]2)c(F)cn1 (single isomer, unassigned) [Example 478-C]",AC50,[1],3060 nM
same,pIC50,[2],< 5.00
"CC(O)c1cc(-c2cc(C(=O)N3CCC(C(=O)NCc4ncc(F)cc4Cl)CC34CC4)n[nH]2)c(F)cn1 (single isomer, unassigned) [Example 478-D]",AC50,[1],15300 nM
same,pIC50,[2],< 5.00
"COc1cc(-c2cc(C(=O)N3CC[C@H](C(=O)NC4CCCn5ccnc54)CC34CC4)n[nH]2)c(F)cn1 (single isomer, unassigned) [Example 479-A]",AC50,[1],885 nM
same,pIC50,[2],5.50
"COc1cc(-c2cc(C(=O)N3CC[C@H](C(=O)NC4CCCn5ccnc54)CC34CC4)n[nH]2)c(F)cn1 (single isomer, unassigned) [Example 479-B]",AC50,[1],95.3 nM
same,pIC50,[2],5.97
"O=C(NCc1ncc(F)cc1Cl)C1CCN(C(=O)c2cc(-c3cc(C4CC4)ncc3F)[nH]n2)C2(CC2)C1 (single isomer, unassigned) [Example 480-A]",AC50,[1],2310 nM
same,pIC50,[2],5.29
"O=C(NCc1ncc(F)cc1Cl)C1CCN(C(=O)c2cc(-c3cc(C4CC4)ncc3F)[nH]n2)C2(CC2)C1 (single isomer, unassigned) [Example 480-B]",AC50,[1],18.1 nM
same,pIC50,[2],6.69
"COc1cc(-c2cc(C(=O)N3CC[C@H](C(=O)NCc4nccnc4C4CC4CO)CC34CC4)n[nH]2)c(F)cn1 (single isomer, unassigned) [Example 481-A]",AC50,[1],171 nM
same,pIC50,[2],5.36
"COc1cc(-c2cc(C(=O)N3CC[C@H](C(=O)NCc4nccnc4C4CC4CO)CC34CC4)n[nH]2)c(F)cn1 (single isomer, unassigned) [Example 481-B]",AC50,[1],45.7 nM
same,pIC50,[2],5.93
"COc1cnc(CNC(=O)C2CCN(C(=O)c3cc(-c4cc(C)ncc4F)[nH]n3)C3(CC3)C2)c(Cl)c1 (single isomer, unassigned) [Example 484-A]",AC50,[1],1.5 nM
same,pIC50,[2],8.24
"COc1cnc(CNC(=O)C2CCN(C(=O)c3cc(-c4cc(C)ncc4F)[nH]n3)C3(CC3)C2)c(Cl)c1 (single isomer, unassigned) [Example 484-B]",AC50,[1],72.4 nM
same,pIC50,[2],6.34
"COc1cc(-c2cc(C(=O)N3CCC(C(=O)N[C@H]4CC[C@@](O)(C(F)(F)F)CC4)CC34CCC4)n[nH]2)c(F)cn1 (single isomer, unassigned) [Example 486-A]",AC50,[1],1060 nM
same,pIC50,[2],6.24
"COc1cc(-c2cc(C(=O)N3CCC(C(=O)N[C@H]4CC[C@@](O)(C(F)(F)F)CC4)CC34CCC4)n[nH]2)c(F)cn1 (single isomer, unassigned) [Example 486-B]",AC50,[1],2.9 nM
same,pIC50,[2],7.64
"COc1cc(-c2cc(C(=O)N3CC[C@H](C(=O)NC4CCN(c5ccc(C#N)cn5)C4)CC34CC4)n[nH]2)c(F)cn1 (single isomer, unassigned) [Example 489-A]",AC50,[1],1.9 nM
same,pIC50,[2],8.20
"COc1cc(-c2cc(C(=O)N3CC[C@H](C(=O)NC4CCN(c5ccc(C#N)cn5)C4)CC34CC4)n[nH]2)c(F)cn1 (single isomer, unassigned) [Example 489-B]",AC50,[1],6 nM
same,pIC50,[2],6.33
"COc1cc(-c2cc(C(=O)N3CC[C@H](C(=O)NC4CN(c5cnc(C)cn5)CC4(F)F)CC34CC4)n[nH]2)c(F)cn1 (single isomer, unassigned) [Example 490-A]",AC50,[1],2.3 nM
same,pIC50,[2],7.83
"COc1cc(-c2cc(C(=O)N3CC[C@H](C(=O)NC4CN(c5cnc(C)cn5)CC4(F)F)CC34CC4)n[nH]2)c(F)cn1 (single isomer, unassigned) [Example 490-B]",AC50,[1],9.7 nM
same,pIC50,[2],7.11
"COc1cc(-c2cc(C(=O)N3CC[C@H](C(=O)NC4CCCn5c(C)nnc54)CC34CC4)n[nH]2)c(F)cn1 (single isomer, unassigned) [Example 492-A]",AC50,[1],1510 nM
same,pIC50,[2],< 5.00
"COc1cc(-c2cc(C(=O)N3CC[C@H](C(=O)NC4CCCn5c(C)nnc54)CC34CC4)n[nH]2)c(F)cn1 (single isomer, unassigned) [Example 492-B]",AC50,[1],738 nM
same,pIC50,[2],< 5.00
"COc1ncc(F)c(-c2cc(C(=O)N3CCC(C(=O)N[C@H]4CC[C@@](O)(C(F)(F)F)CC4)CC34CC4)n[nH]2)c1C (single isomer, unassigned) [Example 493-A]",AC50,[1],3.2 nM
same,pIC50,[2],7.77
"COc1ncc(F)c(-c2cc(C(=O)N3CCC(C(=O)N[C@H]4CC[C@@](O)(C(F)(F)F)CC4)CC34CC4)n[nH]2)c1C (single isomer, unassigned) [Example 493-B]",AC50,[1],101 nM
same,pIC50,[2],6.31
"COc1cc(-c2cc(C(=O)N3CC[C@H](C(=O)NC4CCC(O)(C(F)(F)F)CC4O)CC34CC4)n[nH]2)c(F)cn1 (single isomer, unassigned) [Example 504-A]",AC50,[1],2130 nM
same,pIC50,[2],< 5.00
"COc1cc(-c2cc(C(=O)N3CC[C@H](C(=O)NC4CCC(O)(C(F)(F)F)CC4O)CC34CC4)n[nH]2)c(F)cn1 (single isomer, unassigned) [Example 504-B]",AC50,[1],48.7 nM
same,pIC50,[2],5.74
"COc1cc(-c2cc(C(=O)N3CC[C@H](C(=O)NC4CCC(O)(C(F)(F)F)CC4O)CC34CC4)n[nH]2)c(F)cn1 (single isomer, unassigned) [Example 504-C]",AC50,[1],15.7 nM
same,pIC50,[2],6.59
"COc1cc(-c2cc(C(=O)N3CC[C@H](C(=O)NC4CCC(O)(C(F)(F)F)CC4O)CC34CC4)n[nH]2)c(F)cn1 (single isomer, unassigned) [Example 504-D]",AC50,[1],2.5 nM
same,pIC50,[2],7.13
"COc1cc(-c2cc(C(=O)N3CC[C@H](C(=O)NC4CCC(O)(C(F)(F)F)CC4O)CC34CC4)n[nH]2)c(F)cn1 (single isomer, unassigned) [Example 504-E]",AC50,[1],687 nM
same,pIC50,[2],5.65
"COc1cc(-c2cc(C(=O)N3CC[C@H](C(=O)NC4CCC(O)(C(F)(F)F)CC4O)CC34CC4)n[nH]2)c(F)cn1 (single isomer, unassigned) [Example 504-F]",AC50,[1],6890 nM
same,pIC50,[2],< 5.00
"Cc1cc(-c2cc(C(=O)N3CCC(C(=O)NCc4ncccc4C4CC4)CC34CC4)[nH]n2)c(F)cn1 (single isomer, unassigned) [Example 506-A]",AC50,[1],4120 nM
same,pIC50,[2],5.48
"Cc1cc(-c2cc(C(=O)N3CCC(C(=O)NCc4ncccc4C4CC4)CC34CC4)[nH]n2)c(F)cn1 (single isomer, unassigned) [Example 506-B]",AC50,[1],3.6 nM
same,pIC50,[2],8.08

# pIC50: −log10 of the molar value.
